Laboratory results: ChEMBL document CHEMBL3297731, “The design and discovery of water soluble 4-substituted-2,6-dimethylfuro[2,3-d]pyrimidines as multitargeted receptor tyrosine kinase inhibitors and microtubule targeting antitumor agents” (Bioorg Med Chem, 2014)
Activity calls are given as the source filed them. No cut-off for these calls is given here.

Amino acid sequences for entries named in this document (tags omitted).
UniProt P02554, whole entry, looked up: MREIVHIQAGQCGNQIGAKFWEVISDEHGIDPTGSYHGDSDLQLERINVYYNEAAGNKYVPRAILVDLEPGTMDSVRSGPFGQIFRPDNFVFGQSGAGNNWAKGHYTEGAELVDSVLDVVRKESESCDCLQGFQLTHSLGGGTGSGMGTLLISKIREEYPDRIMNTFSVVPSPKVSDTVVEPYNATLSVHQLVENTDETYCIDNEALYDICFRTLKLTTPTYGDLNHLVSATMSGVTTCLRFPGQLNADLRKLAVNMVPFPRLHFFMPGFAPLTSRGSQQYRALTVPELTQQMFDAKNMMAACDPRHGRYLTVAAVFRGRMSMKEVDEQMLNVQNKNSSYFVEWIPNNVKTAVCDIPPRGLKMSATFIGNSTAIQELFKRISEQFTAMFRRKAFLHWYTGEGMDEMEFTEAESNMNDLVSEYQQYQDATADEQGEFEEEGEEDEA
UniProt P02550, whole entry, looked up: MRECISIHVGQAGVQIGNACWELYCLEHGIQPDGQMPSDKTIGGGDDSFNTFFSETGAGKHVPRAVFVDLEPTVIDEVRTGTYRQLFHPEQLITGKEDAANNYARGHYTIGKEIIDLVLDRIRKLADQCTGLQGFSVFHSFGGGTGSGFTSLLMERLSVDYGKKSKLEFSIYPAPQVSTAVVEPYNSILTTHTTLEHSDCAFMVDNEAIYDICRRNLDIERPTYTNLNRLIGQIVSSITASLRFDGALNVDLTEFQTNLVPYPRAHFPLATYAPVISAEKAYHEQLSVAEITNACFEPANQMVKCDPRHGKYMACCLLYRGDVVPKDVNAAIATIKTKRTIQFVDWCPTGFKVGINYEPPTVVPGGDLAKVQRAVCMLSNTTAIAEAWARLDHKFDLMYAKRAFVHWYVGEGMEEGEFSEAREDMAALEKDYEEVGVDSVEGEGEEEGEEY

Key:
NCI-H522 = test: cells; conditions: Homo sapiens
Tubulin (Sus scrofa) = Tubulin (Sus scrofa) (UniProt P02554+P02550); conditions: 10 uM
in vivo = conditions: BALBc/J, mouse

## COc1ccc(N(C)c2nc(C)nc3oc(C)cc23)cc1 [listing 1 of 2 here]
NCI-H522
  GI50: < 1 nM

## COc1ccc(N(C)c2nc(C)nc3oc(C)cc23)cc1 [listing 2 of 2 here]
Tubulin (Sus scrofa)
  inhibition: Active

## CCN(CC)CCNC(=O)c1c(C)[nH]c(/C=C2\C(=O)Nc3ccc(F)cc32)c1C [SUNITINIB]
In vivo
  MTD: 30 mg/kg
